The values that follow come from US20260098268A1, “COMPOSITIONS AND METHODS TO TREAT ALZHEIMER'S DISEASE AND OTHER BRAIN DISEASES” (priority 2022, published 2026).

Sequences of proteins named here, by UniProt entry; tags and fusion partners are left off.
UniProt P47746, whole entry: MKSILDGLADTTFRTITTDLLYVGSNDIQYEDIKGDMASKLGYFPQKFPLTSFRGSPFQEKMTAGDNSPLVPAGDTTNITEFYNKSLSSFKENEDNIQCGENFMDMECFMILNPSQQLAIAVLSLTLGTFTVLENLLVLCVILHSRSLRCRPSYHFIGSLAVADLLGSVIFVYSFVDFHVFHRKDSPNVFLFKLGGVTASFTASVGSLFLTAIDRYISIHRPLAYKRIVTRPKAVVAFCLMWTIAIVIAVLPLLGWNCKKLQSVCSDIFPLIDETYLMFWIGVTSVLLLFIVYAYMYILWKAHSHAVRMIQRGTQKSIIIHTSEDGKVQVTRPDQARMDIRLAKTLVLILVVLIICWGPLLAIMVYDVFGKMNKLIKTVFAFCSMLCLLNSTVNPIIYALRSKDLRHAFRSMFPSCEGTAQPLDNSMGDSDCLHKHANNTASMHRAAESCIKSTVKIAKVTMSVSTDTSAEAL

Molecules are shown by their SMILES.

For the experiment, the target named is CB1R (Mus musculus, UniProt P47746). The following applies: WT mice; RIM 2 μM, WIN 5 μM.

Consider `Cc1c(C(=O)NN2CCCCC2)nn(-c2ccc(Cl)cc2Cl)c1-c1ccc(Cl)cc1` [RIM, Rimonabant], for which the “effect on WIN-induced suppression of IPSCs” value is listed as “blocked”.
